According to ChEMBL document CHEMBL1821644, “A prodrug approach for improving antituberculosis activity of potent Mycobacterium tuberculosis type II dehydroquinase inhibitors” (J Med Chem, 2011):

Target: T1, 3-dehydroquinate dehydratase (Mycobacterium tuberculosis, UniProt P9WPX7)
T1 sequence (P9WPX7 whole entry): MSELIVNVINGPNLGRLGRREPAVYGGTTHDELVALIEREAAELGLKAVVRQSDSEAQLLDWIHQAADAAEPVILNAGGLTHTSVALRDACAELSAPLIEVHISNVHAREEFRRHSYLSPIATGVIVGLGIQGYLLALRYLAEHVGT
Assay: Competitive inhibition of Mycobacterium tuberculosis DHQ2

Cc1ccc2sc(COC3=C[C@@](O)(C(=O)O)C[C@@H](O)[C@@H]3O)cc2c1
Ki: 42.5 nM
